# Literature values, collected in paper PMC11266601.
# Assays:
# Rac1 (Homo sapiens) = Rac1 (Homo sapiens) (UniProt P63000); conditions: cited from earlier work
# p67phox (Homo sapiens) = p67phox (Homo sapiens) (UniProt P19878); conditions: cited from earlier work
Substance,Kd (Rac1 (Homo sapiens)) [nM],Kd (p67phox (Homo sapiens)) [nM]
MARTXVc RID RID (from UniProt Q9KS12),4000,
Rac1 (from UniProt P63000),,1700
